# Experimental data: PubChem BioAssay (Tox21)
# Chains of the proteins cited; added tags and fusions are not shown. Lines headed by an entry give the natural chain unless they say otherwise; changes in a name come on top.
# UniProt P10275: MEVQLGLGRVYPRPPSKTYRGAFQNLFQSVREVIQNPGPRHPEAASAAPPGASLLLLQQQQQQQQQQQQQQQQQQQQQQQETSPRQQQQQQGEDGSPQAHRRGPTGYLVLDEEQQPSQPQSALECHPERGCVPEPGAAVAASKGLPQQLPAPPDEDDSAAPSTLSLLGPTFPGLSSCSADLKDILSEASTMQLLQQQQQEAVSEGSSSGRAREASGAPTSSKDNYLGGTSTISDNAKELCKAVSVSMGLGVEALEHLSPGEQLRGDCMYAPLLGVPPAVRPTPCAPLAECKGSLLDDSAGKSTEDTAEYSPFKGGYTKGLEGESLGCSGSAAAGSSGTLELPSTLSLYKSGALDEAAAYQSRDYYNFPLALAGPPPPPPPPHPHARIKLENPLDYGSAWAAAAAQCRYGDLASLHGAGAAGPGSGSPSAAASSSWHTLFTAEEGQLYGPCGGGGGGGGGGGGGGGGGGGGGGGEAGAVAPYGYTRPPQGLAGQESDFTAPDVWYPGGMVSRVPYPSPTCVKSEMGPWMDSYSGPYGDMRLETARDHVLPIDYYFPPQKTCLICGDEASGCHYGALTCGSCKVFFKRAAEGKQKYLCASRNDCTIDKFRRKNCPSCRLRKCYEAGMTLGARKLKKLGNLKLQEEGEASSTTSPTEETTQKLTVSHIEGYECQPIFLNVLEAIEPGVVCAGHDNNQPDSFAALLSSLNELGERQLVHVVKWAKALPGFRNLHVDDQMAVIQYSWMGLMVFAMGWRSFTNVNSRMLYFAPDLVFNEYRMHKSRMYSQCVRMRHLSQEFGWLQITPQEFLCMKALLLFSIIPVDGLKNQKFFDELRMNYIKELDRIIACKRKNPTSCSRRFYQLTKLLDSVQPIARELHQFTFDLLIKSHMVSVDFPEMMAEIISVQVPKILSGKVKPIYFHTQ
# UniProt P11511: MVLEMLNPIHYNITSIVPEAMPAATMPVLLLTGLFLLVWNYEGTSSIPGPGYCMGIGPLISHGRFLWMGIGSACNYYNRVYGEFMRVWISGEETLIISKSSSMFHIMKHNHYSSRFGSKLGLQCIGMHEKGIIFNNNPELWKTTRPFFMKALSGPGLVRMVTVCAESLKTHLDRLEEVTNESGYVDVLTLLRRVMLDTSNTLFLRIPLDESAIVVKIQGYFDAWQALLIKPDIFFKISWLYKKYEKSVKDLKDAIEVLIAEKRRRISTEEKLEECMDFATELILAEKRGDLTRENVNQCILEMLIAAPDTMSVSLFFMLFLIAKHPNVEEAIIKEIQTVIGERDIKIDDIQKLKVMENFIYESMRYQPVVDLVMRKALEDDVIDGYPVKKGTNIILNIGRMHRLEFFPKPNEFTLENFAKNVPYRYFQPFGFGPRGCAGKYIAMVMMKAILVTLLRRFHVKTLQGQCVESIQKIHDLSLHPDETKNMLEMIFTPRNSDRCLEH
# UniProt P03372, whole entry, looked up: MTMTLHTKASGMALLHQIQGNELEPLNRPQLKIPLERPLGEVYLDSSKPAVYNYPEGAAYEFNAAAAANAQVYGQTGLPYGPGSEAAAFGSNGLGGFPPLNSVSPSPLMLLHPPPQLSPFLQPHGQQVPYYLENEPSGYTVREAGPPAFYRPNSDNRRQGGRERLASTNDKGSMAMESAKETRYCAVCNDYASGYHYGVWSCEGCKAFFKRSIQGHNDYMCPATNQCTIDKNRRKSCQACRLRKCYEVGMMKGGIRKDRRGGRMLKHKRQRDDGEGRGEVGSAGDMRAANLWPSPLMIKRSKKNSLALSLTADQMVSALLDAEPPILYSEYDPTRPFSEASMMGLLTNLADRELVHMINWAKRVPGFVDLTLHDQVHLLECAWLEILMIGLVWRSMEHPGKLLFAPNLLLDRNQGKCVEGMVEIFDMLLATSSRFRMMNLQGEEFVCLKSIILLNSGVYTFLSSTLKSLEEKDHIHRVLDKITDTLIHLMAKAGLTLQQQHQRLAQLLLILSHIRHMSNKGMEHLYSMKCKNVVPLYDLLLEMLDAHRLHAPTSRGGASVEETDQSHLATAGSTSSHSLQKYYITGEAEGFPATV
# UniProt Q96RI1: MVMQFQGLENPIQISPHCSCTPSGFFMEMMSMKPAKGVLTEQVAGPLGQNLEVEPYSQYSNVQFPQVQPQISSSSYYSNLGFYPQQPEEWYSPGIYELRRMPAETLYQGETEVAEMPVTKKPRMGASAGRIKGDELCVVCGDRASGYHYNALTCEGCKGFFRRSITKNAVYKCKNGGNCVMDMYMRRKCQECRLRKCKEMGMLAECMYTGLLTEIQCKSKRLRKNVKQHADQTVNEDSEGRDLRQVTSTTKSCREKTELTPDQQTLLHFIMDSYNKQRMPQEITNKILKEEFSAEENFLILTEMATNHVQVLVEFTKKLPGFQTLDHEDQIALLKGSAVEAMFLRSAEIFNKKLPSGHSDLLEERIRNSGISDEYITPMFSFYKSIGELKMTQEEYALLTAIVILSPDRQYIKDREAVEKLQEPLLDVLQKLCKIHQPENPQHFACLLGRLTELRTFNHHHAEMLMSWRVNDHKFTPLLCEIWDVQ
# UniProt Q92731, whole entry, looked up: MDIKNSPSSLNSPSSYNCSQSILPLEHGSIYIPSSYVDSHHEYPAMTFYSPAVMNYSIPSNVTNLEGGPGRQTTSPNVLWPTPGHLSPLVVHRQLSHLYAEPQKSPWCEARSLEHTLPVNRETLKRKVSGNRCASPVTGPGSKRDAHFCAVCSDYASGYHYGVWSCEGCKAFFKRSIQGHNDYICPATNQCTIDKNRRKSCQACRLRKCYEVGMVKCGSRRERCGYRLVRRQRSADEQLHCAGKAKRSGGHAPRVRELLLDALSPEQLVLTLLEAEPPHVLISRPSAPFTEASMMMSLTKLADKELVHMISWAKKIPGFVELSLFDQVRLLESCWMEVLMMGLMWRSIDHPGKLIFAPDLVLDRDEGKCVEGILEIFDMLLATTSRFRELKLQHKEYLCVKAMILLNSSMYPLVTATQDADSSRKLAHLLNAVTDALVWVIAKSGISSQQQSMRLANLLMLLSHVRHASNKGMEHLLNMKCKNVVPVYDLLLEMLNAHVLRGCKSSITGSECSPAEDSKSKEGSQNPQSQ
# Where “and” joins values, the source holds several entries; their conditions need not be identical. Identical values can stand only once. For some assays here: Most of the hits are listed elsewhere, so they are rarer here than in the full data. Some compounds were tested as several samples or in several runs, with calls that do not always agree. Where a call stands in place of a potency, no number is given. The entries are a selection whose mix differs from that of the whole data set. Calls of active or inactive are those of the source. Unless noted, calls come from the whole dose curve; as a rule, active = well fitted curve in the direction sought with a large enough effect in the repeat runs; inconclusive = weak or mixed curves; inactive = no such curve, though single readings can be large; an effect the other way counts as inactive or inconclusive.
# What was measured:
# [1] = target: Androgen receptor (Homo sapiens) (UniProt P10275); assay: qHTS assay to identify small molecule antagonists of the androgen receptor (AR) signaling pathway (AID 743035; active = well fitted inhibition curve with a large enough effect in the signal ratio in the repeat runs, not every such curve was filed as active; inconclusive = weak or mixed curves, or effect the other way; inactive = no such curve, though single readings can be large or run the other way; the % refers to the signal ratio); conditions: HEK293 AR-UAS-bla, R1881-stimulated, beta-lactamase FRET, 16 h; series mostly up to 58.5 µM
# [2] = target: Androgen receptor (Homo sapiens) (UniProt P10275); assay: qHTS assay to identify small molecule agonists of the androgen receptor (AR) signaling pathway using the MDA cell line (AID 743040; note: nearly all actives have a fitted effect of over 20% in size); conditions: MDA-kb2 AR-luc cells, MMTV luciferase, 16 h, stronger effect = higher value
# [3] = target: Androgen receptor (Homo sapiens) (UniProt P10275); assay: qHTS assay to identify small molecule antagonists of the androgen receptor (AR) signaling pathway using the MDA cell line (AID 743042; note: nearly all actives have a fitted effect of over 55% in size); conditions: MDA-kb2 AR-luc, MMTV luciferase, R1881 antagonist, 16 h; series mostly up to 70.3 µM
# [4] = qHTS assay to identify small molecule agonists of the NFkB signaling pathway (AID 1159509; active = well fitted curve in the direction sought with a large enough effect in the signal ratio in the repeat runs, not every such curve was filed as active; inconclusive = weak or mixed curves, or a change in a side signal; inactive = no such curve, though single readings can be large or run the other way; the % refers to the signal ratio); conditions: NFkB-bla ME-180 cells, beta-lactamase FRET ratio, 5 h; at 61 µM (top of the series) unless noted
# Outline: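 Beta-lactamase reporter assay run in quantitative high-throughput format on an NF-kB-responsive ME-180 line, with 5 hr compound treatment and a FRET-based blue/green fluorescence readout.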
# [5] = target: Androgen receptor (Homo sapiens) (UniProt P10275); assay: qHTS assay to identify small molecule antagonists of the androgen receptor (AR) signaling pathway using the MDA cell line in the presence of 0.5 nM R1881 (AID 1259243); conditions: MDA-kb2 MMTV-luciferase, R1881 0.5 nM, 16 h; series mostly up to 42.5 µM; note: nearly all actives have a fitted effect of over 50% in size; note: potency is the fitted concentration of half-maximal effect
# [6] = target: Androgen receptor (Homo sapiens) (UniProt P10275); assay: qHTS assay to identify small molecule agonists of the androgen receptor (AR) signaling pathway in the presence of an antagonist (AID 1259381; calls by dose curve; note: nearly all actives have a fitted effect of over 15% in size); conditions: MDA-kb2 MMTV-luciferase, AR agonist + nilutamide, 16 h; series mostly up to 92.4 µM
# [7] = qHTS assay to identify small molecule antagonists of the retinoic acid receptor (RAR) signaling pathway (AID 1159552; note: nearly all actives have a fitted effect of over 50% in size; note: potency is the fitted concentration of half-maximal effect); conditions: C3RL4 RARE luciferase reporter, retinol-stimulated, 6 h; series mostly up to 42.5 µM
# Outline: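 Retinol signaling pathway inhibitors screened in C3RL4 RARE-luciferase reporter cells seeded overnight at 37 C, then compounds added with 1 uM (final) retinol as pathway substrate. After 6 hr at 37 C, luciferase luminescence read after 30 min at room temperature.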
# Aromatase (Homo sapiens) = Aromatase (Homo sapiens) (UniProt P11511); assay: qHTS assay to identify aromatase inhibitors (AID 743083); conditions: MCF-7 aro ERE, testosterone-driven ERE luciferase, 24 h; at 70.3 µM (top of the series); note: nearly all actives have a fitted effect of over 55% in size
# [8] = target: Nuclear receptor subfamily 1 group I member 2 (Homo sapiens) (UniProt O75469); assay: Human pregnane X receptor (PXR) small molecule agonists, qHTS assay (AID 1346982); conditions: PXR-Luc HepG2, CYP3A4 luciferase reporter, 24 h; series mostly up to 42.5 µM; note: nearly all actives have a fitted effect of over 35% in size
# Outline: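 Stable HepG2 line reporting PXR-mediated CYP3A4 expression via luciferase. Treatment: 24 hr with compounds in DMSO at 37 C. Detection: ONE-Glo luminescence.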
# [9] = target: Nuclear receptor subfamily 1 group I member 2 (Homo sapiens) (UniProt O75469); assay: Human pregnane X receptor (PXR) activation by small molecules, qHTS assay (AID 1346985); conditions: DPX-2 HepG2 CYP3A4-luciferase, 24 h; series mostly up to 38.3 µM; note: nearly all actives have a fitted effect of over 40% in size
# [10] = target: Estrogen receptor (Homo sapiens) (UniProt P03372); assay: qHTS assay to identify small molecule antagonists of the estrogen receptor alpha (ER-alpha) signaling pathway (AID 743069; active = well fitted curve in the direction sought with a large enough effect in the signal ratio in the repeat runs, not every such curve was filed as active; inconclusive = weak or mixed curves, or effect the other way; inactive = no such curve, though single readings can be large or run the other way; the % refers to the signal ratio; note: potency is the fitted concentration of half-maximal effect); conditions: HEK293 ER-alpha-UAS-bla, beta-lactamase ratio, antagonist mode; series mostly up to 69.4 µM
# [11] = target: Estrogen receptor (Homo sapiens) (UniProt P03372); assay: qHTS assay to identify small molecule agonists of the estrogen receptor alpha (ER-alpha) signaling pathway (AID 743075; calls by dose curve;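 note: HEK293 GripTite cells with ER-alpha and UAS-driven beta-lactamase reporter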; note: potency is the fitted concentration of half-maximal effect); conditions: HEK293 ER-alpha-UAS-bla, beta-lactamase FRET ratio, 18 h; series mostly up to 70.1 µM
# [12] = target: Estrogen receptor (Homo sapiens) (UniProt P03372); assay: qHTS assay to identify small molecule agonists of the estrogen receptor alpha (ER-alpha) signaling pathway using the BG1 cell line (AID 743079); conditions: BG1Luc4E2 cells, ERE-luciferase agonist, 22 h; series mostly up to 70.3 µM; note: nearly all actives have a fitted effect of over 20% in size; note: potency is the fitted concentration of half-maximal effect
# [13] = target: Bile acid receptor (Homo sapiens) (UniProt Q96RI1); assay: qHTS assay to identify small molecule antagonists of the farnesoid-X-receptor (FXR) signaling pathway (AID 743217; active = well fitted inhibition curve with a large enough effect in the signal ratio in the repeat runs, not every such curve was filed as active; inconclusive = weak or mixed curves, or effect the other way; inactive = no such curve, though single readings can be large or run the other way; the % refers to the signal ratio); conditions: HEK293T FXR-UAS-bla, beta-lactamase ratio, CDCA-stimulated, 16 h; at 62.6 µM (top of the series)
# Outline: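 Quantitative HTS, beta-lactamase reporter format: FXR-UAS-bla HEK 293T cells co-treated 16 h at 37 °C with compounds and 50 uM final chenodeoxycholic acid, then read by B/G FRET fluorescence.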
# [14] = target: Bile acid receptor (Homo sapiens) (UniProt Q96RI1); assay: qHTS assay to identify small molecule agonists of the farnesoid-X-receptor (FXR) signaling pathway (AID 743220; active = well fitted activation curve with a large enough effect in the signal ratio in the repeat runs, not every such curve was filed as active; inconclusive = weak or mixed curves, or effect the other way; the % refers to the signal ratio); conditions: HEK293T FXR-UAS-bla, beta-lactamase FRET ratio, 16 h; at 62.6 µM (top of the series)
# [15] = target: Estrogen receptor (Homo sapiens) (UniProt P03372); assay: qHTS assay to identify small molecule antagonists of the estrogen receptor alpha (ER-alpha) signaling pathway using the BG1 cell line in the presence of 0.1 nM 17-beta-estradiol (AID 1259244); conditions: VM7Luc4E2 (BG1) ERE-luciferase, antagonist mode, 0.1 nM E2, 22 h; at 42.5 µM (top of the series); note: nearly all actives have a fitted effect of over 50% in size
# [16] = target: Estrogen receptor (Homo sapiens) (UniProt P03372); assay: qHTS assay to identify small molecule agonists of the estrogen receptor alpha (ER-alpha) signaling pathway in the presence of an antagonist (AID 1259383; calls by dose curve; note: top concentration of the series differs between compounds; nearly all actives have a fitted effect of over 15% in size); conditions: VM7Luc4E2 cells, ERE-luciferase, +ICI-182,780, 22 h; series mostly up to 92.4 µM
# [17] = target: Estrogen receptor beta (Homo sapiens) (UniProt Q92731); assay: qHTS assay to identify small molecule antagonists of the estrogen receptor beta (ER-beta) signaling pathway (AID 1259378; active = well fitted inhibition curve with a large enough effect in the signal ratio in the repeat runs, not every such curve was filed as active; inconclusive = weak or mixed curves, or effect the other way; inactive = no such curve, though single readings can be large or run the other way; the % refers to the signal ratio); conditions: ER-beta-UAS-bla HEK293T, beta-lactamase FRET ratio, 16 h; series mostly up to 42.5 µM
# Outline: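 ER-beta-UAS-bla HEK293T cells in 2% charcoal-stripped FBS medium treated with compound plus 1nM final 17-beta-estradiol for 16 hr at 37C. Beta-lactamase reporter read by FRET substrate fluorescence after 2 hours at room temperature.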
# [18] = target: Nuclear receptor subfamily 1 group I member 2 (Homo sapiens) (UniProt O75469); assay: CYP3A4 induction through human pregnane X receptor (PXR) by small molecules, qHTS assay (AID 1346984); conditions: DPX-2 HepG2 PXR, CYP3A4-luciferin luminescence, 24 h; series mostly up to 46.1 µM; note: nearly all actives have a fitted effect of over 40% in size
# Outline: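 After 24 h at 37C with compound, DPX-2 cells (HepG2, co-transfected PXR response element and CYP3A4 promoter-luciferase) got 3uM final P450-Glo Luciferin-IPA for 3 h; One-Glo luminescence followed.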
# [19] = qHTS assay to identify small molecule agonists of the NFkB signaling pathway - cell viability counter screen (AID 1159515; calls by dose curve; note: nearly all actives have a fitted effect of over 55% in size; note: potency is the fitted concentration of half-maximal effect); conditions: NFkB-bla ME-180 viability, CellTiter-Glo luminescence, 5 h; series mostly up to 61 µM
# Outline: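 Counter screen run alongside the NFkB-bla agonist assay: ME-180 reporter cells exposed to compounds for 5 hr, then lysed with CellTiter-Glo in the same wells. Luminescence, read after 30 min, reflects viable cells.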
smiles,measurement,setting,value
C[N+]1(C)CCC(OC(=O)C(O)(c2ccccc2)C2CCCC2)C1 (centres undefined),Potency,[1],inactive
same,activity change,[2]; at 70.3 µM (top of the series),inactive: 0.083% and inactive: 0.522%
same,Potency,[3],inactive
same,activation,[4],inactive: -0.223%
same,Potency,[5],inactive
same,Potency,[6],inactive
Cc1onc(-c2c(Cl)cccc2Cl)c1C(=O)N[C@@H]1C(=O)N2[C@@H]1SC(C)(C)[C@@H]2C(=O)O,Potency,[7],inactive
CNC(=O)c1cc(Oc2ccc(NC(=O)Nc3ccc(Cl)c(C(F)(F)F)c3)cc2)ccn1,activation,[4],inactive: 0.153%
C[N+]1(C)CCCC(OC(=O)C(O)(c2ccccc2)c2ccccc2)C1 (centres undefined),Potency,[7],inactive
CC[N+](CC)(CC)CCOC(=O)C(C1CCCC1)C1CCCC1,Potency,[1],inactive
same,activity change,[2]; at 70.3 µM (top of the series),inactive: -8.49%
same,activation,[4],inactive: -0.693%
same,Potency,[7],inactive
same,Potency,[5],active: 26.6 µM
same,Potency,[6],inactive
c1cnc2c(c1)ccc1cccnc12,Potency,[7],inactive
C[N+]1(CC2COC(c3ccccc3)(c3ccccc3)O2)CCCCC1 (centres undefined),activation,[4],inactive: -0.381% [at 28.5 µM]
same,Potency,[7],inactive
CCN1/C(=C/C=C/c2sc3ccccc3[n+]2CC)Sc2ccccc21,activation,[4],inactive: 2.11% [at 28.5 µM]
same,Potency,[7],active: 5.17 µM
NCCCC(O)(P(=O)(O)O)P(=O)(O)O,"activity, negative = inhibition",Aromatase (Homo sapiens),inactive: -4.03%
same,activation,[4],inactive: -0.378%
same,Potency,[8],inactive
same,Potency,[9],inactive
Cc1ccc(C(=O)c2ccc(CC(=O)O)n2C)cc1,activation,[4],inactive: 0.0663%
same,Potency,[7],inactive
CC(C)NNC(=O)c1ccncc1,Potency,[10],inactive
same,Potency,[11],active: 16.9 µM [inconclusive]
same,Potency,[12],active: 11.9 µM
same,"activity change, negative = inhibition",[13],inactive: 5.02%
same,activation,[14],inactive: -1.84%
same,activation,[4],inactive: 0.121%
same,"activity change, negative = inhibition",[15],inactive: 8.94%
same,Potency,[16],inactive
[Ca+2],Potency,[7],inactive
COc1cccc(OC)c1C(=O)N[C@@H]1C(=O)N2[C@@H]1SC(C)(C)[C@@H]2C(=O)O,activation,[4],inactive: -0.969%
CN1C(C)(C)CCCC1(C)C,Potency,[7],inactive
OC[C@H]1O[C@H](O[C@H]2O[C@H](CO)[C@@H](O)[C@H](O)[C@H]2O)[C@H](O)[C@@H](O)[C@@H]1O,Potency,[7],inactive
Cc1cccc(S(=O)(=O)O)c1C,Potency,[7],inactive
COc1ccc2cc1Oc1cc3c(cc1OC)CC[N+](C)(C)[C@H]3Cc1ccc(cc1)Oc1c(OC)c(OC)cc3c1[C@@H](C2)[N+](C)(C)CC3,Potency,[7],inactive
CC[N+](C)(CC)CCOC(=O)C(O)(c1ccccc1)C1CCCCC1 (centres undefined),Potency,[7],inactive
C[N+]1(CC2COC(c3ccccc3)(C3CCCCC3)O2)CCCCC1 (centres undefined),activation,[4],inactive: -0.131%
NC(=O)NC1N=C([O][Al])NC1=O (centres undefined),activation,[4],inactive: -1.45%
CCN1C=CN(C)C1C (centres undefined),Potency,[1],inactive
same,activity change,[2]; at 95 µM (top of the series),inactive: 0.481%
same,Potency,[3],inactive
same,activation,[4],inactive: -0.893% [at 78.8 µM]
same,Potency,[7],inactive
same,Potency,[5],inactive
same,Potency,[17],inactive
same,Potency,[6],inactive
CN(C)C/C=C(/c1ccc(Br)cc1)c1cccnc1,Potency,[7],inactive
CCCn1cc[n+](C)c1C,Potency,[7],inactive
[O]=[Zr],activation,[4],inactive: 0.538%
same,Potency,[7],inactive
CCCN[C@H]1CCc2nc(N)sc2C1,activation,[4],inactive: -0.809% [at 78.8 µM]
same,Potency,[8],inactive
same,Potency,[18],inactive
same,Potency,[9],inactive
CCCCCC(C)N (centres undefined),Potency,[10],inactive
same,Potency,[11],inactive
same,Potency,[12],inactive
same,"activity change, negative = inhibition",[13],inactive: 19.2%
same,activation,[14],inactive: -0.527%
same,activation,[4],inactive: -0.254%
same,"activity change, negative = inhibition",[15],inactive: 0.248%
same,Potency,[16],inactive
NCCCC(N)(C(=O)O)C(F)F (centres undefined),Potency,[7],inactive
CNC[C@H](O)c1ccc(O)c(O)c1,Potency,[7],inactive
[Cl][In]([Cl])[Cl],Potency,[7],inactive
CO/N=C(\C(=O)N[C@@H]1C(=O)N2C(C(=O)O)=C(CSc3nc(=O)c(O)nn3C)CS[C@H]12)c1csc(N)n1,Potency,[7],inactive
C[N+]1(C)[C@@H]2CC(OC(=O)[C@H](CO)c3ccccc3)C[C@H]1[C@@H]1O[C@@H]12 (some centres undefined),activation,[4],inactive: 0.142%
same,Potency,[7],inactive
CN1CCN(Cc2cc(-c3ccc4[nH]c(=O)oc4c3)co2)[C@@H](c2ccc(F)cc2)C1,activation,[4],inactive: 0.914%
CCOCC(O)COc1ccc(NC(=O)CC[S+](C)C)cc1 (centres undefined),activation,[4],inactive: 0.578%
NC(=NCCCCCCN=C(N)/N=C(\N)Nc1ccc(Cl)cc1)/N=C(\N)Nc1ccc(Cl)cc1,activity change,[2]; at 70.3 µM (top of the series),active: -10.9% [middle of 5 runs]
same,Potency,[10],active: 15.8 µM [cytotoxic] [middle of 4 runs]
same,Potency,[11],inactive
same,Potency,[19],active: 34.3 µM and active: 43.4 µM and inactive
same,Potency,[6],inactive
same,Potency,[16],inactive
Nc1c(CC(=O)O)cccc1C(=O)c1ccc(Br)cc1,Potency,[7],inactive
CC(C)[N+](C)(CCOC(=O)C1c2ccccc2Oc2ccccc21)C(C)C,Potency,[1],inactive
same,activity change,[2]; at 70.3 µM (top of the series),inactive: -2% and inactive: -4.72%
same,Potency,[3],inactive
same,activation,[4],inactive: -0.694% and inactive: -0.123%
same,Potency,[7],inactive
same,Potency,[5],active: 54.5 µM and inactive
same,Potency,[6],inactive
